# Data reported in patent publication US4016250A, “Method for testing for pregnancy” (Cornell Research Foundation, Inc., priority 1974, dated 1977).
# By UniProt entry, the sequences of proteins in these tests, tags left out. Residues count along the entry.
# UniProt Q28005, 27-701: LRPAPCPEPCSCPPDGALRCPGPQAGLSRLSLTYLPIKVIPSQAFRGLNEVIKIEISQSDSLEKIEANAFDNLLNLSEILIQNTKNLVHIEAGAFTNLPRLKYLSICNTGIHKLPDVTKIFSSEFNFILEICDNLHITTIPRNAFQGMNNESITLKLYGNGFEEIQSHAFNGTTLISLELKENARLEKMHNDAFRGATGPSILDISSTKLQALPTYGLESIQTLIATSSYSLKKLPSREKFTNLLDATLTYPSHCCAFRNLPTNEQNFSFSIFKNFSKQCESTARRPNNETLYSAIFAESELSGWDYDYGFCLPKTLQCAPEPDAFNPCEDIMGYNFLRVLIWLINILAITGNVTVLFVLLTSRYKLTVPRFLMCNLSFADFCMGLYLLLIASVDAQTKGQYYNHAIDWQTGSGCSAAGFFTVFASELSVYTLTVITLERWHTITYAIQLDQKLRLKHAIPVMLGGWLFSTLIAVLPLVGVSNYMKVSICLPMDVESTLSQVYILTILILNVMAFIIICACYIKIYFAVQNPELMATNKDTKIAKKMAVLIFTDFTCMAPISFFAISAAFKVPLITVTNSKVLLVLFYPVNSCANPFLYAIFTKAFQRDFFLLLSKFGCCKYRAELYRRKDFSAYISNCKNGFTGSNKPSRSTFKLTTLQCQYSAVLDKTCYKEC
# What was measured:
# [1] = biological target: T1, receptor for HCG in plasma membranes from bovine corpora lutea (Bos taurus, UniProt Q28005); assay: Radioreceptorassay of HCG: competition with 125I-HCG for plasma membrane receptor; assay type: binding; conditions: for cross-reaction in the radioreceptorassay of HCG (FIG. 2): FIG. 2 legends: TSH, HGH, PRL are plasma from hypothyroid, acromegalic, postpartum lactation subjects
# T1 construct: 100 g. of tissue from approximately 25 large corpora lutea; from tissue; host or cells: bovine corpora lutea of early pregnancy (slaughterhouse), plasma membrane fraction from zonal sucrose gradient
# Protocol: All procedures in the preparation of plasma membranes were carried out in an ice bath or at 4° C. Fresh bovine ovaries from early pregnancy (first trimester: fetus length from crown to rump up to 22 cm.) were obtained from the slaughter house and stored in liquid nitrogen until processed. In a typical experiment, 100 g. of tissue from approximately 25 large corpora lutea were cut into small pieces with a sharp steel blade and ground in 500 ml. of 10 mM. Tris-HCl buffer of pH. 7.8 containing one mM. of MgCl2, one MM. dithiothreitol, 10,000I.U. of Trasylol (FBA Pharmaceuticals) per liter and 0.25 M. sucrose. The homogenate was filtered through two layers of cheese cloth and the larger particles were reprocessed in 500 ml. of the buffer. […] The homogenate was centifuged at 650 xg. for 20 minutes in a Sorvall refrigerated centrifuge (RC B, Rotor GSA) to remove intact cells, cell debris and nuclei. The 650 × g. supernatant was again centrifuged at 13,000 g. for 20 minutes in the same centrifuge. Supernatant was this time discarded and the pellet was resuspended in 50 to 70 ml. of the Tris-HCl buffer with the aid of the Teflon-glass homogenizer. This suspension was injected in the core of a TI-14 zonal rotor (Model Beckman Spinco L3-50) spinning at 3,000 rpm. and containing 500 ml. of a linear sucrose gradient (LKB Ultrograd 11300 pump) from 30% (w/v) to 50% (w/v) sucrose and 120 ml. of cushion of 50% (w/v) sucrose (pumping rate 20 ml./min.) An overlay of 20 ml. was injected after the sample. After two hours of centrifugation at 45,000 rpm., the centrifuge was decelerated and the rotor content displaced with 55% sucrose at 20 ml./min. The plasma membranes were displaced from the rotor in the order of increasing particle size, and fractions of 12 ml. were collected and immediately frozen until assayed for binding and enzynatic activity. Membranes were kept frozen during three months without apparent loss of binding ability. Aliquot of the fractions were taken for electron microscopy before freezing.
# A fraction showing the highest binding with the labeled HCG, a low enzyme activity and containing pure plasma membranes as shown by electron microscopy was eluted at a sucrose density of 1.16 (ca 35% w/v). Suitable aliquots of this fraction were stored in liquid nitrogen and used as the receptor.
# In Table I, the incubation was performed for 30 minutes at 37° C. in a Dunaboff water bath shaker. One ml. of chilled diluent was then added to each tube. […] The supernates were aspirated and the pellets were counted in a Packard Autogamma counter with a 51% efficiency for I^125. The standard curves and the hormonal concentration in the plasma samples were calculated by a time sharing IBM computer using logit-log transformations.
# [2] = biological target: T2, PRL receptor sites in ovarian homogenates (Bos taurus, UniProt Q28172); assay: Specificity of 125I-hPRL binding: displacement by unlabeled hormones; design: species or system bovine; conditions: various concentrations
# T2 construct: from tissue; host or cells: ovarian homogenate (bovine, from the preparation section)
# T2 sequence (Q28172 25-581): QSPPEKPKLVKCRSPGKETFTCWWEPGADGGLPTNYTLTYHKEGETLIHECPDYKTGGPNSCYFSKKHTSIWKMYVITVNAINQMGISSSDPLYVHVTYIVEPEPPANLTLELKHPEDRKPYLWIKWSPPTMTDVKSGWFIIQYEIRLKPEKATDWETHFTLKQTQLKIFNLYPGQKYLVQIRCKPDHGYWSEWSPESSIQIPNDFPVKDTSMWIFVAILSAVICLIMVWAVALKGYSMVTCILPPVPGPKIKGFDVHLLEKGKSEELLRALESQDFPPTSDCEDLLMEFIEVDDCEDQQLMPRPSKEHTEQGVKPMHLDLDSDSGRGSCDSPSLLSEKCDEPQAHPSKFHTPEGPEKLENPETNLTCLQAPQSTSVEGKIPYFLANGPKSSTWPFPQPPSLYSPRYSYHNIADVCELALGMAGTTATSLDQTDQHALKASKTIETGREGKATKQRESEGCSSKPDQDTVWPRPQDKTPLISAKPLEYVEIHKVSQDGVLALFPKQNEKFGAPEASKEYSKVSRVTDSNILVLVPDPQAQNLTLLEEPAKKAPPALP
# Protocol: A reaction mixture containing 100 ul of incubation buffer containing 10 IU Trasylol (FBA Pharmaceuticals, New York, New York), 50 ul of receptor preparation equivalent to 1-300 ug of protein and 100 ul of ^125 I-hPRL (SA; 50-70 uCi/ug) were incubated at 37° C. for 2 hours in the absence and in the presence of 1 ug of unlabeled bovine PRL. At the end of incubation, 1 ml of ice cold buffer was added to all tubes and tubes were centrifuged at 5,000 rpm for 20 minutes. The supernatants were aspirated. The pellets containing receptor bound hormones were counted in an Automamma counter with a 51% efficiency for ^125 I (Packard Instrument Company, Downers Grove, Illinois). Specific binding was calculated as the difference of binding in the tubes with and without unlabeled PRL.
# [3] = test system: ovarian ascorbic acid depletion; assay: Ovarian ascorbic acid depletion assay of labeled HCG; assay type: in vivo; conditions: I125-labeled HCG used in the test; 95% confidence limits 5,826-12,250 I.U./mg
# Protocol: Highly purified HCG (containing 12,000 I.U./mg. was utilized for the testing. The HCG was labeled with I^125 by using lactoperoxidase prepared from milk (RZ = 0.78; Sigma Company, St. Louis, Missouri). Two mCi of I^125 in 20 ul. of 0.1 M. sodium acetate buffer of pH. 60 were mixed with 25 ug. of HCG in a reaction vial. An aliquot of 50 ng. lactoperoxidase in 20 ul. and 200 ng. of H2 O2 in 10 ul. of water are then added to the vial. Three aliquots of 100 ng. of H2 O2 were added at five minute intervals. The end of 20 minutes, the reaction was stopped by the addition of 0.5 ml. of 0.15 M. NaCl containing 1% of bovine serum albumin (BSA) of pH. 7.0. The labeled hormone was then separated from free iodine by gel filtration on a 1x30 cm. column of Sephadex G-100 equilibriated with 0.15 m. NaCl containing 1% of BSA, pH. 7.0. The specific activity of the labeled HCG was determined by precipitation with trichloroacetic acid. Five ul. of the crude reaction mixture was diluted to 5 ml. with 0.05 M. phosphate buffer of pH. […] The radioactivity associated with the precipitable material was considered as protein bound and was used in the calculation of the specific activity of the labeled hormone. […] The biological activity of the labeled HCG used in the test, as determined by ovarian ascorbic acid depletion assay, was 8,923 I.U./mg. with 95% confidence limits of 5,826-12,250 I.U./mg.
Substance,cross-reaction in the radioreceptorassay of HCG (FIG. 2) [1],"cross-reaction in the radioreceptorassay of HCG ([1]; highly purified preparations, 30 minutes at 37° C)",displacement of 125I-hPRL bound to receptor protein [2],discrimination from HCG in the radioreceptorassay [1],biological activity of the labeled HCG [3]
follicle stimulating hormone [FSH],no cross-reaction,complete lack of cross-reaction,No displacement,–,–
luteinizing hormone [LH],–,–,No displacement,did not discriminate between HCG and LH; also recorded: did not discriminate between LH and HCG,–
thyroid stimulating hormone [TSH],no cross-reaction,–,–,–,–
labeled HCG: Highly purified human chorionic gonadotropin labeled with I125 using lactoperoxidase,–,–,–,–,"8,923 I.U./mg"

# “Also recorded” adds a separate entry of the source.
